The assay deals with Jak1 (Homo sapiens, UniProt P23458). Briefly: Jak Biochemical HTRF Assay (Jak1). The conditions noted are these: read-out: Jak1 activity, IC50 class, recombinant GST-tagged catalytic domain. The text has this:
Compounds of formula I can be prepared according to the general procedures described in the Schemes and Examples herein, using appropriate materials. Representative compounds of the present invention are exemplified herein below. The compounds exemplified are not, however, to be construed as limiting the scope of the invention in any manner. The examples further illustrate details for the preparation of the compounds of the present invention. Those skilled in the art will readily understand that known variations of protecting groups, of reagents, as well as of the conditions and processes of the following preparative procedures, can be used to prepare these compounds. It is also understood that whenever a chemical reagent is not commercially available, such a chemical reagent can be readily prepared by those skilled in the art by either following or adapting known methods described in the literature or described herein. […] Mass spectra (MS) were measured either by electrospray ion-mass spectroscopy (ESMS) or by atmospheric pressure chemical ionization mass spectroscopy (APCI). […]
The ability of compounds to inhibit the activity of Jak1, Jak2, Jak3, and Tyk2 was measured using a recombinant purified GST-tagged catalytic domain for each enzyme (Invitrogen Jak1 #M4290, […]) in an HTRF format biochemical assay. […] HTRF signal=10,000*665 nm reading/615 nm reading. […]

Amino acid sequences for entries named in this document (tags omitted). Residues count along the entry.
UniProt P23458, 875-1153 limits assumed: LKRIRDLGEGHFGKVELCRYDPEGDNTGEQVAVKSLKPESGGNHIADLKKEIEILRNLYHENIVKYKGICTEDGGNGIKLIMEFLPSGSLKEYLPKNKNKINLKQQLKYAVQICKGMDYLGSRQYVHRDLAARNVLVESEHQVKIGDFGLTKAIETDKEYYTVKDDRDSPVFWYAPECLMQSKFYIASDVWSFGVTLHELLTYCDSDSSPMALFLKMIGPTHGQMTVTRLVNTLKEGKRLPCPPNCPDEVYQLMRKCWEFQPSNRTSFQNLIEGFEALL

By IC50 is commonly meant the concentration that inhibits the measured activity by half.

On to `O=C(OCc1ccccc1)N1CCCC2C1CCN2c1ncnc2[nH]ccc12` (single isomer, unassigned) [Enantiomer B], for which the IC50 is 1 to 10 nM.
The value for `O=C(OCc1ccccc1)N1CCCC2C1CCN2c1ncnc2[nH]ccc12` (single isomer, unassigned) [Enantiomer A] was 100 to 1000 nM.

The values are drawn from patent US8937077B2, “Bicyclic diamines as janus kinase inhibitors” (Merck Sharp & Dohme Corp., priority 2010, dated 2015).
